In patent publication US11712461B2, “Long-acting polypeptide composition for treating atrial fibrillation and its application” (THE FIRST AFFILIATED HOSPITAL OF XI'AN JIAOTONG UNIVERSITY, priority 2021, dated 2023) one finds half-life data, which are given here for one molecule.

The data set relates to Beagle dogs with atrial fibrillation. Briefly: Holter electrocardiogram analysis of beagle dogs with atrial fibrillation treated with the polypeptide. In kind it is in vivo, beagle dog. The note with it: inferred from good therapeutic effect with subcutaneous injection once a day in dogs. An excerpt: (1) Establishing a large animal model: male beagle dogs from 12 to 18 months old, provided by the Animal Experimental Center of Xi'an Jiaotong University School of Medicine, using self-control method, real-time monitoring of beagle dog electrocardiogram through holter to determine whether atrial fibrillation occurred. And recording the baseline, the ECG when the atrial fibrillation occurred and after the polypeptide intervention.
(3) Polypeptide treatment method: dissolving the polypeptide in physiological saline, and injecting 5*10^−9 mol/kg into the loose subcutaneous tissue at the back of the beagle' neck every day, once a day, record the injection time, and record the injection continuously for 5 days.
(4) Electrocardiogram detection method: the large-scale detection indicators in this experiment were all carried out by holter (FIG. 2). Beagle dogs were anesthetized, their hair was shaved, and electrodes were attached. After the connection was established, the ECG monitoring was started. […]
2) The electrocardiogram and atrial fibrillation events of dogs with atrial fibrillation were analyzed by Holter, and the electrocardiograms and atrial fibrillation events of normal dogs, atrial fibrillation dogs and beagle dogs treated with peptides were compared. […]

Take `CC[C@H](C)[C@H](NC(=O)[C@H](CO)NC(=O)C(CC(N)=O)NC(=O)[C@H](CC(C)C)NC(=O)[C@H](Cc1ccc(O)cc1)NC(=O)[C@H](CCCCN)NC(=O)[C@H](CCCCN)NC(=O)[C@@H](NC(=O)[C@H](C)NC(=O)[C@H](CCSC)NC(=O)[C@H](CCC(N)=O)NC(=O)[C@H](CCCCN)NC(=O)[C@H](CCCNC(=N)N)NC(=O)[C@H](CC(C)C)NC(=O)[C@H](CCCNC(=N)N)NC(=O)[C@@H](NC(=O)[C@H](Cc1ccc(O)cc1)NC(=O)[C@H](CC(N)=O)NC(=O)[C@H](CC(=O)O)NC(=O)[C@H](C)NC(=O)[C@H](N)Cc1ccccc1)[C@@H](C)O)C(C)C)C(=O)N[C@@H](CC(C)C)C(=O)N[C@@H](CC(N)=O)C(N)=O` (stereo partly shown) [Polypeptide VA]: the half-life entry is recorded as “long half-life”.
